{"source": "patent US7141655B2", "about": "“Reagents and procedures for high-specificity labeling” (dated 2006)", "assay": "Spectroscopic properties of fluorochrome conjugates in methanol", "conditions": "for λmax,em (nm): emission maximum; for λmax, exc (nm): excitation maximum", "data": [{"substance": "Cy5 bis-sulfonato bis-propionamido-phenylarsine-ethanedithiol", "values": [{"measurement": "λmax,em (nm)", "result": 673, "unit": "nm"}, {"measurement": "λmax, exc (nm)", "result": 650, "unit": "nm"}]}, {"substance": "Cy7 bis-propionamido-phenylarsine-ethanedithiol", "values": [{"measurement": "λmax,em (nm)", "result": 774, "unit": "nm"}, {"measurement": "λmax, exc (nm)", "result": 743, "unit": "nm"}]}, {"substance": "Cy5 bis-propionamido-phenylarsineoxide", "values": [{"measurement": "λmax,em (nm)", "result": 665, "unit": "nm"}, {"measurement": "λmax, exc (nm)", "result": 647, "unit": "nm"}]}, {"substance": "Cy3 bis-propionamido-phenylarsine-ethanedithiol", "values": [{"measurement": "λmax,em (nm)", "result": 567, "unit": "nm"}, {"measurement": "λmax, exc (nm)", "result": 552, "unit": "nm"}]}, {"substance": "Cy3 bis-sulfonato bis-propionamido-phenylarsine-propanedithiol-sulfonic acid", "values": [{"measurement": "λmax,em (nm)", "result": 570, "unit": "nm"}, {"measurement": "λmax, exc (nm)", "result": 557, "unit": "nm"}]}, {"substance": "Cy3 bis-propionamido-phenylarsineoxide", "values": [{"measurement": "λmax,em (nm)", "result": 566, "unit": "nm"}, {"measurement": "λmax, exc (nm)", "result": 552, "unit": "nm"}]}, {"substance": "Cy5 bis-sulfonato bis-propionamido-phenylarsine-propanedithiol-sulfonic acid", "values": [{"measurement": "λmax,em (nm)", "result": 667, "unit": "nm"}, {"measurement": "λmax, exc (nm)", "result": 652, "unit": "nm"}]}, {"substance": "Cy5 bis-propionamido-phenylarsine-ethanedithiol", "values": [{"measurement": "λmax,em (nm)", "result": 666, "unit": "nm"}, {"measurement": "λmax, exc (nm)", "result": 648, "unit": "nm"}]}, {"substance": "Cy3 bis-sulfonato bis-propionamido-phenylarsine-ethanedithiol", "values": [{"measurement": "λmax,em (nm)", "result": 572, "unit": "nm"}, {"measurement": "λmax, exc (nm)", "result": 558, "unit": "nm"}]}]}
